By UniProt entry, the sequences of proteins in these tests, tags left out.
UniProt Q14524, whole entry: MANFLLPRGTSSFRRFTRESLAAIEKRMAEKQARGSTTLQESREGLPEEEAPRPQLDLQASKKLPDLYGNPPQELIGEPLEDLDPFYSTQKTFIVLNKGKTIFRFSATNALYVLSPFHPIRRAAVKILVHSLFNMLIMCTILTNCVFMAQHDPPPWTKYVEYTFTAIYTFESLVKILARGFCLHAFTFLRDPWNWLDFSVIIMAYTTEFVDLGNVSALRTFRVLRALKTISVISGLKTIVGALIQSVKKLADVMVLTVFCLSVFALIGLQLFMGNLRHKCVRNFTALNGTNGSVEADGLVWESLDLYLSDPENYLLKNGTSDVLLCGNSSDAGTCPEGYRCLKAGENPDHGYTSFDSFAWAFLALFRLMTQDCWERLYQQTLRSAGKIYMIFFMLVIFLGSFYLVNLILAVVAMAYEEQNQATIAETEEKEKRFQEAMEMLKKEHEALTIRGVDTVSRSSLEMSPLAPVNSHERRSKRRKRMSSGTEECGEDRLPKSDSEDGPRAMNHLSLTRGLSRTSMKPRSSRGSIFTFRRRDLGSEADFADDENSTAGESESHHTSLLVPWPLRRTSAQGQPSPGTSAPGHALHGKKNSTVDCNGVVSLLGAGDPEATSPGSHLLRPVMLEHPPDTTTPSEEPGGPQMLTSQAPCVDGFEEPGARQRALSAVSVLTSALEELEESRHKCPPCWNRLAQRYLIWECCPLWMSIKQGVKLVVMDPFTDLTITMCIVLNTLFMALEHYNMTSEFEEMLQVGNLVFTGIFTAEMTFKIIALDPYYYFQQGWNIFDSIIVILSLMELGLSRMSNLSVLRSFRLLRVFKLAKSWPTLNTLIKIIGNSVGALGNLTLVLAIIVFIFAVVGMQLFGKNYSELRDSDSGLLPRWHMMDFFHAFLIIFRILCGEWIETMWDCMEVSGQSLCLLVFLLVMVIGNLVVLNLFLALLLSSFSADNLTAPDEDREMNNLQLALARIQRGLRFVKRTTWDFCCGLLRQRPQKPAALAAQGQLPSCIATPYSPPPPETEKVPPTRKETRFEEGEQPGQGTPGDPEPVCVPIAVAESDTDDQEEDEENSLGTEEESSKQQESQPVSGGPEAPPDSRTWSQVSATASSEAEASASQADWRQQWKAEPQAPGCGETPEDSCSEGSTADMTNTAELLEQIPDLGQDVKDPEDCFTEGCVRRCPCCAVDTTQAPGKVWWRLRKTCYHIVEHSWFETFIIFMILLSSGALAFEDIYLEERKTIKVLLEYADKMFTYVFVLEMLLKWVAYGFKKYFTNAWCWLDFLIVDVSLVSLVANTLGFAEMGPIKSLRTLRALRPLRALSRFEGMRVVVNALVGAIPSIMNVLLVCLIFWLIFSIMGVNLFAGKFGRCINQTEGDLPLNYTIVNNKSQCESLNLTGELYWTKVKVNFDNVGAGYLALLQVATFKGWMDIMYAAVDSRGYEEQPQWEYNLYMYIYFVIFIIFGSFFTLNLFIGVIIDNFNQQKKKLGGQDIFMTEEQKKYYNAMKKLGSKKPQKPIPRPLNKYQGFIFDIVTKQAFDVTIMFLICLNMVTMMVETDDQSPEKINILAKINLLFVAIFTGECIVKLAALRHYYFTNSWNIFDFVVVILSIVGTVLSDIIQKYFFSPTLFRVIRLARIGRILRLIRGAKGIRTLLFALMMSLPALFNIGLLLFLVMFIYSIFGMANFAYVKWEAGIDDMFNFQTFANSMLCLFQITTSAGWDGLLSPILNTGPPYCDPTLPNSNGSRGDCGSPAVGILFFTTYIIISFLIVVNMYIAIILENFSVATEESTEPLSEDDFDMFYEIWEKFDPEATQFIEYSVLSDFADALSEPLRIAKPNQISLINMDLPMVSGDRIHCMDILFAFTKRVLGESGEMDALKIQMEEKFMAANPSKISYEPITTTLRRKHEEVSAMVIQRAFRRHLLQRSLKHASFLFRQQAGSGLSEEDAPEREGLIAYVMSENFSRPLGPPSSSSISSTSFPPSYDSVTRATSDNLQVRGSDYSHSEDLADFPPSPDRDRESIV
UniProt Q15858, whole entry: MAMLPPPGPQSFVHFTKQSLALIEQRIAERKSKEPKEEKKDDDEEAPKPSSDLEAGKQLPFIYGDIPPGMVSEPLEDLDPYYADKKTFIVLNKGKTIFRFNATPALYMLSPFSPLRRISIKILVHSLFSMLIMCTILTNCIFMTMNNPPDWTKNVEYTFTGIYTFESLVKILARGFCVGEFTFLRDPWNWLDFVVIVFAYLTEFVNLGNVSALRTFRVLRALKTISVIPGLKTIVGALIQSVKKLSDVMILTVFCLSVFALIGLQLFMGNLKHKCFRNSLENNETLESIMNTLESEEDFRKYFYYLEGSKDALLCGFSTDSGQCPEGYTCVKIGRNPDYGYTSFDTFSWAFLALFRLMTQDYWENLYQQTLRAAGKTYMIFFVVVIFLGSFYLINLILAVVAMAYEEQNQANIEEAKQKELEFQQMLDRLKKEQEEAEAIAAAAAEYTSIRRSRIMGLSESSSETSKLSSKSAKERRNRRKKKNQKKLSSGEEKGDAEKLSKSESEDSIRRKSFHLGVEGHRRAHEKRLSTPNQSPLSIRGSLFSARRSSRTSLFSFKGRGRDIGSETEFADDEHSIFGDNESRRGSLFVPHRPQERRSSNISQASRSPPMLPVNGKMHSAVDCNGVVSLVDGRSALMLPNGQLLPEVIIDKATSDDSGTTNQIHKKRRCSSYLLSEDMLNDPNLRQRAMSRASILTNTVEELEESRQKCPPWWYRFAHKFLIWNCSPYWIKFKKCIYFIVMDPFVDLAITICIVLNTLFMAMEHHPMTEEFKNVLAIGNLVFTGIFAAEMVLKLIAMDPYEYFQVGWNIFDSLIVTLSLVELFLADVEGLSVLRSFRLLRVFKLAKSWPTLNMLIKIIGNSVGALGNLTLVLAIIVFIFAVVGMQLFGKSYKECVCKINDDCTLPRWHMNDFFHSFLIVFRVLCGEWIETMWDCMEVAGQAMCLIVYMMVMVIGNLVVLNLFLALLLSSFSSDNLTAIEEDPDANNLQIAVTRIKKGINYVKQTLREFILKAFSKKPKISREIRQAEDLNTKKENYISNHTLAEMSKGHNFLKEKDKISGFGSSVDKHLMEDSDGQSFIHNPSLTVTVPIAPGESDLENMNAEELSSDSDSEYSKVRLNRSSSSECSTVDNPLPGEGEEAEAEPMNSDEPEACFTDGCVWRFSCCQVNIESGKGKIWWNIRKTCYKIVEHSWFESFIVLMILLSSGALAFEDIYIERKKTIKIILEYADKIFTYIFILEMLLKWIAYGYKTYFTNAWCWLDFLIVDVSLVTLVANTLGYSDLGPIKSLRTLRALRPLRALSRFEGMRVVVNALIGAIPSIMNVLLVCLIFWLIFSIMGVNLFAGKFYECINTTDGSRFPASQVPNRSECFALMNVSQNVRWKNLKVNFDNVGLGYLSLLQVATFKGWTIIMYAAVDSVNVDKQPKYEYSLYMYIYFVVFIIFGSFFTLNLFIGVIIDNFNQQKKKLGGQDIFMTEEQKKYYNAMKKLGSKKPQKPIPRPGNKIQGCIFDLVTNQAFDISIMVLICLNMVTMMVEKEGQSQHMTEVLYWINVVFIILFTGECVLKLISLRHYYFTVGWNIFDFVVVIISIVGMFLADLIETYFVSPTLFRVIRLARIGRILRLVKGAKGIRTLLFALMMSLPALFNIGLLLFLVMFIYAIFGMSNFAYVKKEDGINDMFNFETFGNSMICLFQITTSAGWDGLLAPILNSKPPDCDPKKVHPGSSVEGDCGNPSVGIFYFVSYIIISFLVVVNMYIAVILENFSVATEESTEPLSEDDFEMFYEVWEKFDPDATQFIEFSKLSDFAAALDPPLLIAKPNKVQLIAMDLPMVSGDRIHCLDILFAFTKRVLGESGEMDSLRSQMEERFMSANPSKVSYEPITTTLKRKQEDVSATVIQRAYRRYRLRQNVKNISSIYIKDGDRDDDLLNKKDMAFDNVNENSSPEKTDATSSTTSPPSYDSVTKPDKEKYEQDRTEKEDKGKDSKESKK

In ChEMBL document CHEMBL3352194, “The discovery of benzenesulfonamide-based potent and selective inhibitors of voltage-gated sodium channel Na(v)1.7” (Bioorg Med Chem Lett, 2014):

Experiments:
[1] = target: Sodium channel protein type 5 subunit alpha (Homo sapiens, UniProt Q14524); assay: Inhibition of human Nav1.5 expressed in HEK cells assessed as reduction in sodium current at -60 mV holding potential by PatchXpress platform based whole cell patch clamp electrophysiological assay; parameters: species or system HEK293
[2] = target: Sodium channel protein type 9 subunit alpha (Homo sapiens, UniProt Q15858); assay: Inhibition of human Nav1.7 expressed in HEK cells assessed as reduction in sodium current at -60 mV holding potential by PatchXpress platform based whole cell patch clamp electrophysiological assay; parameters: species or system HEK293

SMILES	IC50 [2] [nM]	also measured
O=S(=O)(Nc1ncns1)c1cc(F)c(OC[C@@H]2CNCC[C@H]2c2ccc(Cl)cc2)cc1F		IC50 ([1]; hek293): > 10000 nM
O=S(=O)(Nc1ncc(F)cn1)c1cc(F)c(OC[C@H]2CNCC[C@@H]2c2ccc(Cl)cc2)cc1F	11	
O=S(=O)(Nc1ncc(Cl)s1)c1cc(F)c(OC[C@@H]2CNCC[C@H]2c2ccc(Cl)cc2)cc1F (relative stereo)	23	
O=S(=O)(Nc1ccncn1)c1cc(F)c(OC[C@@H]2CNCC[C@H]2c2ccc(Cl)cc2)cc1F (relative stereo)	33	
O=S(=O)(Nc1ncns1)c1cc(F)c(OC[C@H]2CNCC[C@@H]2c2ccc(Cl)c(F)c2)cc1F (relative stereo)	0.9	
O=S(=O)(Nc1ncns1)c1cc(F)c(OC[C@H]2CNCC[C@@H]2c2ccc(F)c(F)c2)cc1F (relative stereo)	2.6	
O=S(=O)(Nc1ncns1)c1cc(F)c(OC[C@@H]2CNCC[C@H]2c2ccc(Cl)cc2)cc1F (racemic)		IC50 [1]: > 10000 nM
